Assay results published in article PMC11111404, “Discovery of potent small-molecule inhibitors of lipoprotein(a) formation” (Nature, 2024).

Amino acid sequences for entries named in this document (tags omitted). Residues count along the entry.
UniProt Q01177, 20-812 limits assumed: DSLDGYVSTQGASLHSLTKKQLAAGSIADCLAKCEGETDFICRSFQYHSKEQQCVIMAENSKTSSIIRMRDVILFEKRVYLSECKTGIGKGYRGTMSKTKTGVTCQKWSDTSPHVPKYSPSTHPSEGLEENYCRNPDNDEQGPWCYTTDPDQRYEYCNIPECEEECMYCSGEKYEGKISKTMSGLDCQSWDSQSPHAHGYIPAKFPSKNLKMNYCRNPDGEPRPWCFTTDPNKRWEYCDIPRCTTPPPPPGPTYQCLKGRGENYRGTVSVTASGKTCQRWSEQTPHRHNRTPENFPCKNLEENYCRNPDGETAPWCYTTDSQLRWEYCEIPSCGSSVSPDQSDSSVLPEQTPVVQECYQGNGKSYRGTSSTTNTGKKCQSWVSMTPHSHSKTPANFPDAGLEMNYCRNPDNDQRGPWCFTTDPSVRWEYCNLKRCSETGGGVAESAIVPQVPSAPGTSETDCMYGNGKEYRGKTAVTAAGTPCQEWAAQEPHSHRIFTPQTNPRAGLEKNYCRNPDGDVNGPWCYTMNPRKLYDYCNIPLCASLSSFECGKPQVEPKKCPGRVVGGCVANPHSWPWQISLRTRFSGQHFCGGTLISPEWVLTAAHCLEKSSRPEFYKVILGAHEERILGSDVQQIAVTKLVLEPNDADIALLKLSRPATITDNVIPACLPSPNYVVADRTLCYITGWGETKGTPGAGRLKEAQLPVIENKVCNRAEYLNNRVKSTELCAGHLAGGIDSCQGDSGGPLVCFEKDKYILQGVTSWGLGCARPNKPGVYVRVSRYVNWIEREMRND

How the values were obtained:
[1] = system: Lp(a); assay: Lp(a) levels in LPA × ApoB100 transgenic mice; settings: oral BID, five days
[2] = biological target: plasmin activity (Rattus norvegicus, UniProt Q01177); assay: Rat plasma plasmin (plasminogen) activity ex vivo after oral dosing; type: in vivo; settings: rats treated orally at pharmacological doses
Description: (§1) Male Sprague Dawley rats (Charles River, average body weight 310 g, aged eight to nine weeks old) were housed in cages with a standard light cycle (12-h light, 12-h dark), at room temperature (22 ± 4 °C), with a relative humidity of 30–70%. Rats were identified by numbers on the cage cards. After arrival, rats were fed on a normal diet (Harlan Teklad diet 2014) and randomized to treatment groups (n = 5 per group) by baseline plasma plasminogen concentration and activity using a BRAT. LSN3441732 and LY3473329 were administered QD orally at three dose levels (3.7, 12.3 and 37 mg kg^−1; 3.2, 10.5 and 31.6 mg kg^−1 per dose, respectively) or vehicle (10 ml kg^−1, 1% HEC, 0.25% Tween-80, Antifoam) for four days. Terminal blood was drawn under general anaesthesia 24 h after the day-4 oral dose. […] The mixture was added and the plate was sealed and placed in a prewarmed plate reader, shaken, and the absorbance read every 30 s for 2 h. The maximum slope for each curve was determined and the percentage inhibition was calculated relative to untreated controls. Plasminogen protein was measured using ELISA kits for rat (Abcam ab157740) according to the manufacturer’s instructions. Plasminogen activity (percentage) and mass (µg ml^−1) in rat were analysed by ANOVA in JMP 16.1.0. […]

[3] = biological target: plasminogen (Rattus norvegicus, UniProt Q01177); assay: Rat plasma plasminogen concentration (ELISA) after oral dosing; type: in vivo; settings: rats
Description: as §1

SMILES: O=C(O)[C@@H](Cc1cccc(CN(Cc2cccc(C[C@H](C(=O)O)[C@H]3CCNC3)c2)Cc2cccc(C[C@H](C(=O)O)[C@H]3CCNC3)c2)c1)[C@H]1CCNC1 [LY3473329]
- ED50 for Lp(a) reduction [1]: 3 mg/kg
- plasma plasmin activity measured ex vivo [2]: decreased plasma plasmin activity
- plasma levels of plasminogen protein [3]: decreased in a dose-dependent manner
